ChEMBL document CHEMBL2331279, “Rational design and synthesis of 4-substituted 2-pyridin-2-ylamides with inhibitory effects on SH2 domain-containing inositol 5'-phosphatase 2 (SHIP2)” (Eur J Med Chem, 2013)

Target: T1, Phosphatidylinositol 3,4,5-trisphosphate 5-phosphatase 2 (Homo sapiens, UniProt O15357)
T1 sequence (O15357 whole entry): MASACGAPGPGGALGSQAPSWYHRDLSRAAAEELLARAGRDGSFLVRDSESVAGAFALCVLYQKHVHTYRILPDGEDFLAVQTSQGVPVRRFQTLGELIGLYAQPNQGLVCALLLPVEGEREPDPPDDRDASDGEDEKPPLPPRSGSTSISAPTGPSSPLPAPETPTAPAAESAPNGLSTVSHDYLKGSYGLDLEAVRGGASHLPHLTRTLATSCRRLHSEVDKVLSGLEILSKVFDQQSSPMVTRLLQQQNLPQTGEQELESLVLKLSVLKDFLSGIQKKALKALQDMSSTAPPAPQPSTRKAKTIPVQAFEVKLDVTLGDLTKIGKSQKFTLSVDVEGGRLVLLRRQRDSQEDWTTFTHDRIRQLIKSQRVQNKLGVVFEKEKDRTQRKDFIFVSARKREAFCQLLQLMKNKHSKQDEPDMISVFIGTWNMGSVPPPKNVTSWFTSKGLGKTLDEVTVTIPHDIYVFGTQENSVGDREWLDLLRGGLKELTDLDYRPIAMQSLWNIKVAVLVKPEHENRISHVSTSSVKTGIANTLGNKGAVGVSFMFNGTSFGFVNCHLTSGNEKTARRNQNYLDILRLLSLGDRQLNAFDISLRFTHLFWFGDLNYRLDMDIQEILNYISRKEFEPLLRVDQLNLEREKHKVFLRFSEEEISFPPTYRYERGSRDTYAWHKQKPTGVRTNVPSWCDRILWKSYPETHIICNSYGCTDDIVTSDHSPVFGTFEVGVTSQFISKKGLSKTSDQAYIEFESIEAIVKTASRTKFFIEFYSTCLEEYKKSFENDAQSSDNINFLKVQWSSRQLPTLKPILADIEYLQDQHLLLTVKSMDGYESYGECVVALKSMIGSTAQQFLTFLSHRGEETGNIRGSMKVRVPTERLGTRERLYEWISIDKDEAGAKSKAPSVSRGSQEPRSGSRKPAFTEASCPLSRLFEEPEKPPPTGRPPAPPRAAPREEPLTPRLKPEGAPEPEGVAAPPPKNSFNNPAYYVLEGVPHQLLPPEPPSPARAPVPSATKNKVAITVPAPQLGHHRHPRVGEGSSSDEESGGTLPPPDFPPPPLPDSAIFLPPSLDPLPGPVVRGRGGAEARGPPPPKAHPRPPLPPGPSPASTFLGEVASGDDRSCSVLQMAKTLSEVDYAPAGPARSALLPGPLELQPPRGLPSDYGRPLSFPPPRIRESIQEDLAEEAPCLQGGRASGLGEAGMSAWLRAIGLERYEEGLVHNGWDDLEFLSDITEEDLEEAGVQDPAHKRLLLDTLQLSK
Test: Inhibition of SHIP2 (unknown origin)

SMILES: C[C@H](NC(=O)c1sccc1OCc1ccc(Cl)cc1)c1ccccc1
- IC50: 0.62 µM
